The structures appear in SMILES notation. “And” between values parts separate entries of the source, which are not always exact repeats. Identical values can stand only once.

The test system of one assay is brain Aβ (Aβ40, Aβ42). The assay is described as follows: Brain Aβ40, Aβ42 and total Aβ levels by ELISA of DEA brain extracts of ovariectomized guinea pigs. Format: in vivo, guinea pig. On the procedure: Maintenance of animals and treatment. Ovariectomized (ovx) and intact female guinea pigs were purchased from Hilltop Laboratories (Scottsdale, Pa.); ovx animals were 8 weeks old at the time of surgery. […] Throughout the study, the animals were fed ad libitum in a controlled lighting environment (12 h/12 h light/dark cycles). After the surgery, the ovx guinea pigs were put on a casein-based, soy-free diet (Purina, Richmond, Ind.) to exclude the presence of phytosteroids in the diet. The intact animals also began receiving soy-free food at approximately 8 weeks of age. […] Prior to the beginning of the treatment, all animals were weighed. The average daily food intake for each animal using this particular diet was determined in a preliminary experiment.
Tissue collection. At the end of the treatment, all animals were sacrificed by decapitation. […] The brains were immediately removed, and the cerebellum was dissected away from each brain. The rest of the brain was divided into hemispheres which were snap-frozen and stored at −80° C.
Preparation of Brain Extracts. Soluble Proteins from the Brains were Recovered using a modification of an established protocol (Savage et al., J. Neurosci., 1998, 18:1743-52). Briefly, the hemispheres were homogenized in 0.2% diethylamine (DEA)/50 mM NaCl at 1:10 w/v ratio, with 5-6 strokes of a Dounce homogenizer. The DEA homogenate was centrifuged for 90 min at 100,000 g. The DEA supernatants were neutralized to pH about 8.0 by addition of 1/10th vol. of 0.5M Tris-Cl pH 6.8, then aliquoted and snap-frozen. The pellets of the DEA extracts were solubilized in 2% SDS/PBS containing a cocktail of protease inhibitors (“Complete”, Boehringer Mannheim, Germany), sonicated and boiled. The protein concentrations of the DEA and SDS supernatants were determined using the BCA reagent assay kit (Pierce, Rockford, Ill.).
Detection of sAPPα, flAPP, Aβ40 and Aβ42. The amino acid sequence of APP from guinea pigs is 97% identical to the human APP homologue and the Aβ region is 100% identical to human Aβ (Beck et al., Biochim. Biophys. Acta, 1997, 1351:17-21), thus enabling use of well characterized Aβ antibodies to study the effects of estrogen on APP metabolism.
The levels of Aβ40 and Aβ42 were determined by Aβ40- and Aβ42-specific ELISA assays (Mehta et al, Neurosci. Lett., 1998, 241:13-16). For each animal, the levels of Aβ40, Aβ42, and total Aβ were standardized to brain tissue weight and expressed as ng (Aβ)/g (brain tissue, wet weight). In all experiments, animals were coded prior to tissue collection, and the treatment status of each animal was unknown to the investigators at the time of the assays.
(In general: An ELISA detects its analyte on a solid surface through an enzyme-linked reagent.)

For a further assay, the system named is sAPPα. In words: Brain sAPPα levels by quantitative Western blotting (6E10), standardized to flAPP. Type of assay: in vivo, guinea pig. How it is done: Soluble Proteins from the Brains were Recovered using a modification of an established protocol (Savage et al., J. […] The DEA homogenate was centrifuged for 90 min at 100,000 g. […] The protein concentrations of the DEA and SDS supernatants were determined using the BCA reagent assay kit (Pierce, Rockford, Ill.). Soluble APPα (sAPPα) was detected by Western blotting of proteins from the DEA extracts using the monoclonal antibody 6E10 (Senetek, St. Louis, Mo.), which recognizes […]β region. The DEA extraction recovers soluble and not membrane embedded proteins, precluding the interference of flAPP with the detection of sAPPα (Savage et al., supra). […] Visualization was performed using enhanced chemiluminescence. For quantitation, multiple exposures of the immunoblots were scanned using the ScanAnalysis software. […] Full-length APP levels were determined by immunoblotting of SDS extracts (50 μg/lane) using antibody 369 (which recognizes epitopes in the cytoplasmic tail of APP, residues 645-695; Buxbaum et al., Proc. Natl. Acad. Sci. […] Again, the samples were analyzed in triplicate, and densitometric analysis of multiple exposures of the immunoblots was performed. […] The levels of Aβ40, Aβ42, and sAPPα in brain tissue were determined using Aβ40- and Aβ42-specific ELISA assays and quantitative immunoblotting, respectively, as described in Methods.
Background: A western blot detects proteins with antibodies after separation by electrophoresis.

[1] abbreviates: ovx + low-dose E2, 1 mg E2/kg BW/day per os, 10 days.

Regarding `C[C@]12CC[C@@H]3c4ccc(O)cc4CC[C@H]3[C@@H]1CC[C@@H]2O` [E2, 17β-estradiol], the “effect on Aβ42/Aβ40 ratio on average” value in the assay on brain Aβ (Aβ40, Aβ42) (10-day E2 treatment, both low and high-dose) was “did not alter”. Also, the Aβ42/Aβ40 ratio median is 0.140 in the assay with brain Aβ (Aβ40, Aβ42) (ovx + high-dose E2, 5 mg E2/kg BW/day per os, 10 days) and 0.146 with brain Aβ (Aβ40, Aβ42) (setting [1]). Besides, the “Aβ42/Aβ40 ratio mean +/− SEM” value with brain Aβ (Aβ40, Aβ42) (ovx + high-dose E2, 5 mg E2/kg BW/day per os, 10 days, ovx mean 0.150) is 0.141 and 0.141 +/− 0.013; in the assay with brain Aβ (Aβ40, Aβ42) (setting [1]), 0.141 +/− 0.01. Moreover, in the assay on brain Aβ (Aβ40, Aβ42) (second experiment, 5 mg/kg BW/day, 10 days), the “effect of high-dose E2 on Aβ species relative to low-dose E2” value is recorded as “did not cause any additional decrease”. The “levels of sAPPα, ovx group versus ovx+E2 group” value in the assay with sAPPα (first experiment, 1 mg E2/kg BW/day per os, 10 days, p=0.5) is reported as “indistinguishable”. In the assay with sAPPα (second experiment, ovx guinea pigs, low and high-dose E2), the “levels of sAPPα after E2 replacement” value was “unaffected”.
